# From patent US11214540B2, “Compositions for treating neurodegenerative diseases” (COGNITION THERAPEUTICS, INC., priority 2017, dated 2022)
# Test: Mouse liver microsome (MLM) stability
# Details: microsomes
smiles,measurement,value
"COc1cc(CCC(C)NCc2ccc(C(F)(F)F)cc2)ccc1O (stereo not shown) [4-(3-(4-(trifluoromethyl)benzylamino)butyl)-2-methoxyphenol, reference compound]",half-life,16 min
